{"sequences": {"note": "Amino acid sequences for entries named in this document (tags omitted). A change or cut given only in a name is not applied to a line headed by its entry.", "UniProt P41145": "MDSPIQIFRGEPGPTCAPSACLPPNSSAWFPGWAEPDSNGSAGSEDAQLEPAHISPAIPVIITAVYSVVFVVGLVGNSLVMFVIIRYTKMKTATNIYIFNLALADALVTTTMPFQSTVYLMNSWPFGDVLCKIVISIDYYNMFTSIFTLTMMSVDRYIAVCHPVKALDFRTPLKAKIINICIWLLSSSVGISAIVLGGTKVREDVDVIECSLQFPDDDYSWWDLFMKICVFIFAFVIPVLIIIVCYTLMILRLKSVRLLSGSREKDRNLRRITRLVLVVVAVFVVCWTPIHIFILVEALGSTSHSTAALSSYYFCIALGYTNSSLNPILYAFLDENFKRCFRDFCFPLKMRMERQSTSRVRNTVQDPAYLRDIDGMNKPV"}, "source": "paper PMC8513079", "about": "(Molecules, 2021)", "molecular_target": "KOR (Halotag-KOR) in HEK293 cells (Homo sapiens, UniProt P41145)", "assay": "cADDis cAMP assay, KOR", "format": "cell-based", "conditions": "relative to 10^−5 M U-50488H, cADDis sensor, 50 μM forskolin, 28 °C, 40 min reading, 10^−11–10^−5 M, means ± S.E.M., three independent experiments (n = 3–5), Figure 4, + p < 0.05 vs U-50488H"}
{"smiles": "CN(C(=O)Cc1ccc(Cl)c(Cl)c1)[C@@H]1CCCC[C@H]1N1CCCC1", "values": [{"measurement": "Emax, cAMP assay, KOR (Table 1)", "result": "100.0 ± 3.0", "unit": "%"}]}
